Values of other authors in patent US4452985A, “2-Guanyl-4-(substituted phenyl) thiazole derivatives” (American Home Products Corporation, priority 1983, dated 1984).

System: H2 histamine receptors
Settings: cited from earlier work

Structure (SMILES): CNC(=C[N+](=O)[O-])NCCSCc1ccc(CN(C)C)o1 [ranitidine]
- H2 antagonist activity relative to cimetidine (in words): greater activity than cimetidine
